Earlier results, collected in patent US20130084312A1, “NANOPARTICLES FOR DELIVERY OF BIOACTIVE AGENTS” (ROSE PHARMACEUTICALS, LLC, priority 2011, published 2013).

Amino acid sequences for entries named in this document (tags omitted).
UniProt P32238, whole entry: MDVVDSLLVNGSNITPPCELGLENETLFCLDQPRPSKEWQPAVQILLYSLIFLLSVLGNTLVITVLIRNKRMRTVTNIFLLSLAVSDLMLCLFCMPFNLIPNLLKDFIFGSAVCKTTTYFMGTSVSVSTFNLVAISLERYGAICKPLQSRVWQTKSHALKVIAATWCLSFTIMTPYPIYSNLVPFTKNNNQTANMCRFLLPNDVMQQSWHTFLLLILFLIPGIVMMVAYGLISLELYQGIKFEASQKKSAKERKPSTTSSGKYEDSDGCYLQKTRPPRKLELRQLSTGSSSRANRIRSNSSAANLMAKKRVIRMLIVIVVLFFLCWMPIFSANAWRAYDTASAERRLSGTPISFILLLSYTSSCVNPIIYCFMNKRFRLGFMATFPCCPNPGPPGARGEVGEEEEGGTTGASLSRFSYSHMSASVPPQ

How the values were obtained:
[1] = target: T1, CCK receptor, homogenates from the cerebral cortex (Homo sapiens, UniProt P32239)
T1 construct: host or cells: cerebral cortex homogenates
T1 sequence (P32239 1-447): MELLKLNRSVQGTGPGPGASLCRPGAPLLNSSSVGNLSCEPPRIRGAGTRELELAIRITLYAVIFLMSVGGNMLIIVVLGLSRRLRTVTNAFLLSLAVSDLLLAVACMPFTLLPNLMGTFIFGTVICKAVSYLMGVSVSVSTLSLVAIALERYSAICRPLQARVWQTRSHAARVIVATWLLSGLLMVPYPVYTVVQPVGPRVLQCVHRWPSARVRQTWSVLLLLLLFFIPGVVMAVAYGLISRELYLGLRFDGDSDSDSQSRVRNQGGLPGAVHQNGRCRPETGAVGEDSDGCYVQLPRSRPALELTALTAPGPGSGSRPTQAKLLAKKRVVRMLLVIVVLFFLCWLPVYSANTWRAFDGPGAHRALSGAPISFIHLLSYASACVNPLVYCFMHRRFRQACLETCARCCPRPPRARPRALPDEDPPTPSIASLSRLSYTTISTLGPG

CCKA receptors = CCKA receptors (Homo sapiens, UniProt P32238); conditions: relative to sulfated CCK-8
CCKB receptors = target: T2, CCKB receptors (Homo sapiens, UniProt P32239)
T2 sequence (P32239 1-447): T1 sequence (P32239 1-447)

Substance: Trp-Met-Asp-Phe-NH2 [CCK-4]
- concentration displacing CCK receptor binding relative to sulfated CCK-8 [1]: equimolar, 10-fold or 100-fold greater
- fold lower affinity for CCKA receptors than the sulfated form of CCK-8 (CCKA receptors): 10,000 fold
- affinity for CCKB receptors (CCKB receptors): high affinity and selectivity
